Earlier results in paper PMC7559231, “Drug-induced cholestasis assay in primary hepatocytes” (MethodsX, 2020).

Tested on: sandwich-cultured human hepatocytes
Conditions: cited from earlier work

| SMILES | DICI 48 h Mean (50 µM test compound, 48 h exposure, SCHH, ref [6],[7]) | DICI 24 h Mean |
| --- | --- | --- |
| CCc1ccc(CCOc2ccc(CC3SC(=O)NC3=O)cc2)nc1 (centres unmarked) [Pioglitazone, pioglitazone] | 1.06 |  |
| O=C(O)Cc1ccccc1Nc1c(Cl)cccc1Cl [Diclofenac, diclofenac] |  | 1.18 |
